Experimental data reported in patent US7528141B2, “Use of cyclopenta[g]quinazoline derivatives for treating cancer” (BTG International Limited, priority 2001, dated 2009).
Where “and” joins values, the source holds several entries; their conditions need not be identical. Identical values can stand only once.

Chains of the proteins cited; added tags and fusions are not shown. Residues count along the entry.
UniProt P35846, 25-232 limits assumed: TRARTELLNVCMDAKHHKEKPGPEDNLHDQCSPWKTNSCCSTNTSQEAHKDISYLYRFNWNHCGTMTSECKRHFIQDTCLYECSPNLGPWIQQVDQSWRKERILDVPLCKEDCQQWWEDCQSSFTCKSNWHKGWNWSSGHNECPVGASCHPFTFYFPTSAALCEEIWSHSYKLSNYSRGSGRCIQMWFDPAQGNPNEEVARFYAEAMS
UniProt P07607, whole entry: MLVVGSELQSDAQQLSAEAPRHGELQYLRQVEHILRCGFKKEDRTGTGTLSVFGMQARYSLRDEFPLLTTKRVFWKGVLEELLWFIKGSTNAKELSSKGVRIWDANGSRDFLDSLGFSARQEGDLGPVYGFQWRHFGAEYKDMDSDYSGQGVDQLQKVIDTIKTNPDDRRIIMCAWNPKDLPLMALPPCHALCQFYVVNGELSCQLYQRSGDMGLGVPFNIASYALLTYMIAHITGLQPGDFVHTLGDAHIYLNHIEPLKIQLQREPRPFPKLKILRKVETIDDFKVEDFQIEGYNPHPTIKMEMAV
UniProt P15328, 25-234 limits assumed: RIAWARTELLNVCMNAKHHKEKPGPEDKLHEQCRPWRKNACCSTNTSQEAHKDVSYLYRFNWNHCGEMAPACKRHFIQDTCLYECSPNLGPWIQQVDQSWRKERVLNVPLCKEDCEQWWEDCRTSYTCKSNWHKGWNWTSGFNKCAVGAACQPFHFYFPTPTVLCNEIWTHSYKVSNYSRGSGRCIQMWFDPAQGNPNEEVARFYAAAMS
UniProt P41440, whole entry: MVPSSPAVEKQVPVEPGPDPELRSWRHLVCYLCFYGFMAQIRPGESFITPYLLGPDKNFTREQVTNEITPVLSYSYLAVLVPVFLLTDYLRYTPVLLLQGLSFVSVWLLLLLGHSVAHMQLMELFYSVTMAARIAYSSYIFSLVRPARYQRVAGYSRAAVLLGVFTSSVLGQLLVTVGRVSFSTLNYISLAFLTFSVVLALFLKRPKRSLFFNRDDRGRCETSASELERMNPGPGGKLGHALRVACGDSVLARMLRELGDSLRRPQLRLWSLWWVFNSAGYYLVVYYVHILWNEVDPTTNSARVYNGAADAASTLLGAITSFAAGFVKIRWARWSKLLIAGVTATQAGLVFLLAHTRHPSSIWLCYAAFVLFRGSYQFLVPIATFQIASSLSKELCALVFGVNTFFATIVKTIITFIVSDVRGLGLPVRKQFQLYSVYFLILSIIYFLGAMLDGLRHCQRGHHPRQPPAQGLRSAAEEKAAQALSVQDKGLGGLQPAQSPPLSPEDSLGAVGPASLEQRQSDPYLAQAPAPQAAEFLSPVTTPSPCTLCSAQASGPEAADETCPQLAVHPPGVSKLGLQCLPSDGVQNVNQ
UniProt P41438, whole entry: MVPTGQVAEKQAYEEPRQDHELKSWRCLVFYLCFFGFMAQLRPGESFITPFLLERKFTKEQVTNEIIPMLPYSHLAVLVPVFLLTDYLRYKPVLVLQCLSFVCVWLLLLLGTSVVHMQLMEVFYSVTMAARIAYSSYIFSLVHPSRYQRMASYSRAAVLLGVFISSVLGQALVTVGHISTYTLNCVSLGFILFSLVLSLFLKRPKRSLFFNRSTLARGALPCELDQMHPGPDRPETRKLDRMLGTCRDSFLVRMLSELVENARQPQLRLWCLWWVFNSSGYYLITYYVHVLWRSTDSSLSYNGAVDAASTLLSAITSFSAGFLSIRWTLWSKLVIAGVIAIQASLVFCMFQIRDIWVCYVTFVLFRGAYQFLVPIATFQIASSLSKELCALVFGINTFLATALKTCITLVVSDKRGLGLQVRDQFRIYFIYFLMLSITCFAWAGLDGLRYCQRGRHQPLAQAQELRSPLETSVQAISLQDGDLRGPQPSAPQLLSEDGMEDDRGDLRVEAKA

Tests used:
[1] = tested on: A431-FBP cells
[2] = target: α-FR (Mus musculus, UniProt P35846); experiment: Binding to α-FR relative to folic acid, L1210-FBP cells; details: L1210-FBP mouse tumor cells overexpressing α-FR; folic acid = 1
[3] = target: thymidylate synthase (TS) from L1210 mouse leukaemia cells (Mus musculus, UniProt P07607); experiment: Inhibition of isolated L1210 thymidylate synthase; format: biochemical; details: read-out: Inhibition of isolated L1210 TS, Kiapp
[4] = tested on: A431 cells
[5] = tested on: KB cells;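 note: KB nasopharyngeal carcinoma cells express the α-folate receptor, and leucovorin at 20 nM was the folate source in the growth medium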
[6] = target: α-FR (Homo sapiens, UniProt P15328); experiment: Binding to α-FR relative to folic acid, A431-FBP cells; details: human A431 cells transfected with α-FR; folic acid = 1
[7] = target: reduced-folate carrier (RFC) (Homo sapiens, UniProt P41440); experiment: Inhibition of 3H MTX uptake in W1L2 cells; format: cell-based; details: read-out: Inhibition of 3H MTX uptake Ki, W1L2; human lymphoblastoid W1L2 cells; high Ki = low affinity for RFC
[8] = target: reduced-folate carrier (RFC) (Mus musculus, UniProt P41438); experiment: Inhibition of 3H MTX uptake in L1210 cells; format: cell-based; details: read-out: Inhibition of 3H MTX uptake Ki, L1210; mouse L1210 tumor cells; high Ki = low affinity for RFC

| IC50 [1] | Inverse relative affinity for α-FR, L1210-FBP [2] | Ki [3] | IC50 [4] | Inverse relative affinity for α-FR, A431-FBP [6] | SMILES | IC50 [5] | Ki [7] | Ki [8] |
| --- | --- | --- | --- | --- | --- | --- | --- | --- |
| 20000 nM | 0.73 ± 0.035 | 0.75 nM | 23000 nM | 0.57 ± 0.059 | C#CCN(c1ccc(C(=O)N[C@@H](CCC(=O)O)C(=O)O)cc1)C1CCc2cc3nc(N)[nH]c(=O)c3cc21 (stereo partly drawn) | 26000 nM and 15000 nM |  |  |
|  |  |  |  |  | C#CCN(Cc1cc2c(=O)[nH]c(C)nc2cc1C)c1ccc(C(=O)N[C@@H](CCc2nnn[nH]2)C(=O)O)c(F)c1 | 10 nM | 760 nM | 2400 nM |
| 470 nM | 0.31 ± 0.0089 | 2 nM | 1100 nM |  | C#CCN(Cc1cc2c(=O)[nH]c(C)nc2cc1C)c1ccc(C(=O)N[C@@H](CCC(=O)N[C@H](CCC(=O)O)C(=O)O)C(=O)O)cc1 | 210 nM | 83000 nM | 269000 nM |

| SMILES | IC50 [1] | Inverse relative affinity for α-FR, L1210-FBP [2] | Ki [3] | IC50 [4] | Inverse relative affinity for α-FR, A431-FBP [6] | IC50 [5] | Ki [7] | Ki [8] |
| --- | --- | --- | --- | --- | --- | --- | --- | --- |
| C#CCN(c1ccc(C(=O)N[C@@H](CCC(=O)O)C(=O)O)cc1)[C@H]1CCc2cc3nc(C)[nH]c(=O)c3cc21 | 360 nM |  |  | 770 nM |  | 210 nM | 4900 nM | 9100 nM |
